Test results: ChEMBL document CHEMBL5034027, “Synthesis and evaluation of stereoisomers of methylated catechin and epigallocatechin derivatives on modulating P-glycoprotein-mediated multidrug resistance in cancers” (Eur J Med Chem, 2021)

Tested on: LCC6MDR
Assay: Reversal of Pgp-mediated paclitaxel resistance in human LCC6MDR cells assessed as relative fold by measuring paclitaxel IC50 at 10 uM after 5 days by Cell Titer-Glo luminescence assay relative to control
Type: cell-based
Settings: time 5.0 day

O=C(O[C@@H]1Cc2c(O)cc(O)cc2O[C@@H]1c1cc(O)c(O)c(O)c1)c1cc(O)c(O)c(O)c1 [EPIGALOCATECHIN GALLATE]
fold change (FC): 1.2
